Results reported in US11918657B2, “Dendrimer delivery system and methods of use thereof” (The Johns Hopkins University, priority 2017, dated 2024).

Test system: activated microglia
Assay: Qualitative brain distribution by confocal imaging in rabbit model of cerebral palsy
Assay type: in vivo, New Zealand white rabbits
Conditions: CP kits PND1, 55 mg/kg i.v., 24 h post-injection

Dextran
crossing of blood-brain-barrier (presence in periventricular region): did not cross the blood-brain-barrier
